Patent publication US20240343821A1, “OFATUMUMAB FOR TREATING PEDIATRIC MS” (NOVARTIS AG, priority 2021, published 2024)

Legend:
[1] = cited from earlier work
[2] = PARADIGMS study: fingolimod compared to interferon beta-1a (Avonex) in pediatric MS; format: in vivo, human; conditions: conservative estimate from upper limit of the confidence interval of the ARR ratio
Description: In the completed PARADIGMS study, fingolimod was compared to interferon (IFN) beta-1a (Avonex). Participants treated with IFN beta-1a experienced 120 MS relapses in 163 participant-years of exposure, while fingolimod treated participants experienced 25 MS relapses in 180 participant-years of exposure. The annualized relapse rate (ARR) (i.e. the number of MS relapses per year) was 0.122 in the fingolimod group and 0.675 in IFN beta-1a group.
In the PARADIGMS study the ARRratio (fingolimod/interferon) was 0.18 (95% CI: 0.11; 0.30) (Chitnis et al 2018). Taking the upper limit of the confidence interval as a conservative estimate, would result in ARR being 3.3-times higher on interferon versus fingolimod.

B1: interferon (IFN) beta-1a (protein, UniProt P01574 22-187, looked up)
Interferon beta: MSYNLLGFLQRSSNFQCQKLLWQLNGRLEYCLKDRMNFDIPEEIKQLQQFQKEDAALTIYEMLQNIFAIFRQDSSSTGWNETIVENLLANVYHQINHLKTVLEEKLEKEDFTRGKLMSSLHLKRYYGRILHYLKAKEYSHCAWTIVRVEILRNFYFINRLTGYLRN
modifications: glycosylated, CHO-expressed (Avonex)
notes: interferon beta-1a (Avonex), comparator in the … study
annualized relapse rate (ARR) (i.e. the number of MS relapses per year) ([1]; PARADIGMS study, pediatric MS participants): 0.675 | number of MS relapses experienced ([1]; PARADIGMS, 163 participant-years of exposure (IFN beta-1a), 180 participant-years (fingolimod)): 120 | ARR on interferon versus fingolimod (fold higher) [2]: 3.3 times
